Experiment [1] can be described thus: Inducers of the Endoplasmic Reticulum Stress Response (ERSR) in human glioma: Validation (AID 504836). Note: 0% is about no effect. The conditions noted are these: human glioma cells, ER stress response reporter; at 38.3 µM (top of the series). The method in brief: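 ERSR induction read as luciferase luminescence (Bright-Glo, 10 min at room temperature) in stably transfected human U87-MG glioma cells exposed to compounds for 16 h, using GRP78 as sensor.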

Protein sequences, listed by entry. Tags and fused reporters are not part of them. Lines headed by an entry give the natural chain unless they say otherwise; changes in a name come on top.
UniProt O94782: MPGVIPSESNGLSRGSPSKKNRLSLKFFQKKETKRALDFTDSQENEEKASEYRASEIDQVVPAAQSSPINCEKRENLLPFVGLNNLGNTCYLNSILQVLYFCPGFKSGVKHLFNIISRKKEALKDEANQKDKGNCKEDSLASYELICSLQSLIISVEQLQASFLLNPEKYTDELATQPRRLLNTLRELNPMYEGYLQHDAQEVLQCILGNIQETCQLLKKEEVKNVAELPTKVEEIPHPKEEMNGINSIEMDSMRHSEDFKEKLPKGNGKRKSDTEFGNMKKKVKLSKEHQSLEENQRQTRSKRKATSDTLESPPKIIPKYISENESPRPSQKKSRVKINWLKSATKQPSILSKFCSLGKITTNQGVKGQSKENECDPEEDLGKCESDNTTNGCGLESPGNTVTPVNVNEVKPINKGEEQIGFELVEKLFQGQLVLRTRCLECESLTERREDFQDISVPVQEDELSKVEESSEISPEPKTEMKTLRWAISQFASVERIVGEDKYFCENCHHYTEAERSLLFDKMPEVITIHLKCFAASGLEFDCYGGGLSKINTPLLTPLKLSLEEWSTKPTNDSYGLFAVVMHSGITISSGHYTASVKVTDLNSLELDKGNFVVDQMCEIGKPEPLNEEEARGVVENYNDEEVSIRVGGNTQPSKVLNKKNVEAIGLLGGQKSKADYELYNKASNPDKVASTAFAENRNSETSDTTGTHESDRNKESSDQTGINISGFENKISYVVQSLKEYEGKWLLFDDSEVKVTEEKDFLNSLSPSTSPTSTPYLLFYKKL
UniProt Q12809: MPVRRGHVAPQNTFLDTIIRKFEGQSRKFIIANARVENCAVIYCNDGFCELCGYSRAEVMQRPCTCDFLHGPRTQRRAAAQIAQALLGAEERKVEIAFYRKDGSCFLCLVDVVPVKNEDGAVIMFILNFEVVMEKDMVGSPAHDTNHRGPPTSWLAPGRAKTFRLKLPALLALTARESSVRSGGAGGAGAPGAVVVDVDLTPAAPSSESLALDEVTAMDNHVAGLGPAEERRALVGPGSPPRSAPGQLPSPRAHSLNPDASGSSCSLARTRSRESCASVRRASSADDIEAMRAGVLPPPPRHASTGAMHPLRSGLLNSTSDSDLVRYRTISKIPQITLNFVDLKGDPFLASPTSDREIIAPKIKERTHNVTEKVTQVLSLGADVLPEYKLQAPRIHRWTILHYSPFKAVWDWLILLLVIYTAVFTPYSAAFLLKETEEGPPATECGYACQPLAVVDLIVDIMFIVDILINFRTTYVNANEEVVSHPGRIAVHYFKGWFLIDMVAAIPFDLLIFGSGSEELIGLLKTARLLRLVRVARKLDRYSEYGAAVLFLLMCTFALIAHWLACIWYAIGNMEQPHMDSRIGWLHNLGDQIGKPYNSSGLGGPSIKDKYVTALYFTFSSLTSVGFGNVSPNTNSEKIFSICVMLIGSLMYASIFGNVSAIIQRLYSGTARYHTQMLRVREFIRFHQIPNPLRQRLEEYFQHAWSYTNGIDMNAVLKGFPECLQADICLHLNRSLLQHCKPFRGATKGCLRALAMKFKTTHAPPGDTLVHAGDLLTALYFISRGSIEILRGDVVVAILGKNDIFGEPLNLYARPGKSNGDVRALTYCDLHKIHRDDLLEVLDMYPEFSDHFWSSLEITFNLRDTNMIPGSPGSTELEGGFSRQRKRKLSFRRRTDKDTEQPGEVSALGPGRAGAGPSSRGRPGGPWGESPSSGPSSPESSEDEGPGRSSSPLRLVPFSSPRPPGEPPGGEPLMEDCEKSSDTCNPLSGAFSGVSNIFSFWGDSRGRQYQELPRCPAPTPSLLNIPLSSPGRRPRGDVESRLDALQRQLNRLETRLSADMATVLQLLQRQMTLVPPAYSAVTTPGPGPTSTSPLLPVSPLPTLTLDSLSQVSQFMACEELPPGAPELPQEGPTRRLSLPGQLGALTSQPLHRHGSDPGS
UniProt O94925: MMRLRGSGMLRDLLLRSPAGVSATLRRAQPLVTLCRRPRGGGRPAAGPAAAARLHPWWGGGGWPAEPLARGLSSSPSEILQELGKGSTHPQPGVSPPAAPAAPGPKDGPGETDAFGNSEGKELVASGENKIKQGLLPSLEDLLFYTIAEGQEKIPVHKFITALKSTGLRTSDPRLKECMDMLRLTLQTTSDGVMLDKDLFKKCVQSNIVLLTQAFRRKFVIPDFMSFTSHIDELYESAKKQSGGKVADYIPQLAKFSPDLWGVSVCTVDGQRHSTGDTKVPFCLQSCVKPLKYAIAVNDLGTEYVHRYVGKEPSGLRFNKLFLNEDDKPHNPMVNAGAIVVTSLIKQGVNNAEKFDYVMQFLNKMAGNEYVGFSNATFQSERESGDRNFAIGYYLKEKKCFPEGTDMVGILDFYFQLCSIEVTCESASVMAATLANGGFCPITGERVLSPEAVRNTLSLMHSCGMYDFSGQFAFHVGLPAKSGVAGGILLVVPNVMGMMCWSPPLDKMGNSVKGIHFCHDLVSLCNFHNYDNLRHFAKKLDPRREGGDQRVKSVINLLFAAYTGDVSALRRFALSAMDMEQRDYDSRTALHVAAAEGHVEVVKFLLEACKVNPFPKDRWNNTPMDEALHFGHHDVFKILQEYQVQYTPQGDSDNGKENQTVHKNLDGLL
UniProt P43220, whole entry, looked up: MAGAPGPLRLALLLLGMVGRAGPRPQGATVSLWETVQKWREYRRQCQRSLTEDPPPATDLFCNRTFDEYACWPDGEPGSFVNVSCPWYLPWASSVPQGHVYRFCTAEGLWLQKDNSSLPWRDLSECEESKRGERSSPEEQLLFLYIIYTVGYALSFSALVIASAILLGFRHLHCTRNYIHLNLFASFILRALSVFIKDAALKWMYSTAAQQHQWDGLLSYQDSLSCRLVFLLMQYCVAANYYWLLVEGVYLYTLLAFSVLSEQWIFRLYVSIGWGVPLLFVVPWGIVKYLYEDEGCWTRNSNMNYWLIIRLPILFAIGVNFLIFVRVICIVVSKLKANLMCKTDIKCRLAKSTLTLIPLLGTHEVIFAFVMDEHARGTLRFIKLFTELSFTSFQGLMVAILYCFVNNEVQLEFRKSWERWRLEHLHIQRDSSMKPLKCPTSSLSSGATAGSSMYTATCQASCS
UniProt P15289: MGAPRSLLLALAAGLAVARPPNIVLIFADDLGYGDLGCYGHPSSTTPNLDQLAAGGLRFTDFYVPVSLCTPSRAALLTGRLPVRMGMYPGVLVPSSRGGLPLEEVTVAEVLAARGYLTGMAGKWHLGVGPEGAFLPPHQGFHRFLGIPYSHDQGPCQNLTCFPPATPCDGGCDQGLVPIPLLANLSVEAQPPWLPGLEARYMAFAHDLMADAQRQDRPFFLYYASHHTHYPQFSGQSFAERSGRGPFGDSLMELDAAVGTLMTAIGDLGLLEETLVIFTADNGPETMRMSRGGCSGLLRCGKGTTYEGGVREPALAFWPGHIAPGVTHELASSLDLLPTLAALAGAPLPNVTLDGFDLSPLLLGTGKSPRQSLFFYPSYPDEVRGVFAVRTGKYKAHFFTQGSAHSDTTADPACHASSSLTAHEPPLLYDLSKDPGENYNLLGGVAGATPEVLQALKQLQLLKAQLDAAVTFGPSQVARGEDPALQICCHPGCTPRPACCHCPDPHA
UniProt P35557, whole entry, looked up: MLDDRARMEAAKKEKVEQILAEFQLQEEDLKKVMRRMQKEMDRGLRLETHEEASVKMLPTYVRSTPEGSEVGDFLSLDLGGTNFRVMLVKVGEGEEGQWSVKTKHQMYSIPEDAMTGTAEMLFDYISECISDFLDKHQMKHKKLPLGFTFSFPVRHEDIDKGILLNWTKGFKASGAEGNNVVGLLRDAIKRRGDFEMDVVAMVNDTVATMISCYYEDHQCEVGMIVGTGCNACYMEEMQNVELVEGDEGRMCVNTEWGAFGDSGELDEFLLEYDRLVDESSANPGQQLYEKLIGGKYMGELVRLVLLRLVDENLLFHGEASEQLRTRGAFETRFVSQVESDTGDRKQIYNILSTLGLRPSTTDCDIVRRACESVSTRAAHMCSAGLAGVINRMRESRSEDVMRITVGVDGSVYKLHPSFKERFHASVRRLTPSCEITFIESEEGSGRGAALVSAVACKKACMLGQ
UniProt Q14397: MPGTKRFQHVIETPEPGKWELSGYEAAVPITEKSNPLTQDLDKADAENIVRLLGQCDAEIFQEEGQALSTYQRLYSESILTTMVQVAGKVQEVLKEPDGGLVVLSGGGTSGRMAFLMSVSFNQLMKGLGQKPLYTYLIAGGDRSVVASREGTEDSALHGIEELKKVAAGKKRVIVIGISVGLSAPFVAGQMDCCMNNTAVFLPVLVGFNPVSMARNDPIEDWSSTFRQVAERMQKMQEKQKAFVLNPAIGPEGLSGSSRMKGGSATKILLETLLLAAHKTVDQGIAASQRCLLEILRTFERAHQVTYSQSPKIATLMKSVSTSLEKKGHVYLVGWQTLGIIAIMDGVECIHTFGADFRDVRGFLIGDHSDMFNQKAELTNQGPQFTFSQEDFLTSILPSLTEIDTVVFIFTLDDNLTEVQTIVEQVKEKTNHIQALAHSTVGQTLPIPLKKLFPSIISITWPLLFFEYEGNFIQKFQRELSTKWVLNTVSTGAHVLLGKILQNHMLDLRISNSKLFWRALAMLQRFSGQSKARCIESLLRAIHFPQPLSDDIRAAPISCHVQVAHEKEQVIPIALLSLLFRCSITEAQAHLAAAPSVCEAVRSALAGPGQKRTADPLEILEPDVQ

For experiment [2], the target named is Ubiquitin carboxyl-terminal hydrolase 1 (Homo sapiens) (UniProt O94782). Nature of the experiment: Inhibitors of USP1/UAF1: Pilot qHTS (AID 504865).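 Note: rhodamine fluorescence freed from ubiquitin-rhodamine substrate followed over time; top concentration of the series differs between compounds; % is set by controls: 0 for no effect and ±100 for the full control effect; nearly all actives have a fitted effect of over 35% in size.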 The conditions noted are these: purified USP1/UAF1, Ub-rhodamine cleavage fluorescence; at 114 µM (top of the series). In general terms: qHTS replaces the single test concentration by a dilution series.
Experiment [3] is described as follows: qHTS for Inhibitors of ATXN expression: Validation (AID 588378). Note: % is set by controls: 0 for no effect and ±100 for the full control effect; nearly all actives have a fitted effect of over 75% in size. The conditions noted are these: cell-based ATXN2 expression reporter assay, luminescence; at 57.1 µM (top of the series). The method in brief:
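Compounds were pinned onto attached HEK293 cells carrying an ATXN2-firefly luciferase construct and incubated 24 hrs at 37 degrees C. Each well then received a fluorescent viability reagent followed by luciferase substrate for end-point luminescence.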

Experiment [4] addresses Voltage-gated inwardly rectifying potassium channel KCNH2 (Homo sapiens) (UniProt Q12809). Put plainly: qHTS Assay for Small Molecule Inhibitors of the Human hERG Channel Activity (AID 588834).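 Note: U2OS cells transduced with hERG by BacMam; top concentration of the series differs between compounds; % is set by controls: 0 for no effect and ±100 for the full control effect; lower thallium flux fluorescence means stronger hERG block; nearly all actives have a fitted effect of over 50% in size.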 The conditions noted are these: U2OS BacMam hERG, FluxOR thallium flux fluorescence; at 46.1 µM (top of the series) unless noted.
Experiment [5] has as its target Glutaminase kidney isoform, mitochondrial (Homo sapiens) (UniProt O94925). Put plainly: qHTS for Inhibitors of Glutaminase (GLS): LOPAC Validation (AID 624146). Note: potency is the fitted concentration of half-maximal effect; nearly all actives have a fitted effect of over 60% in size. The method in brief:
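Assay buffer: 45 mM KH2PO4 pH 8.2, 0.02% Tween-20. hKGA acts on L-glutamine (1 mM solution added); product glutamate is reported by an oxidase/peroxidase Amplex Red coupling, with fluorescence taken at baseline and 30 min.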

Experiment [6] has as its target Glucagon-like peptide 1 receptor (Homo sapiens) (UniProt P43220). Put plainly: qHTS of GLP-1 Receptor Agonists: LOPAC Validation (AID 624148).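 Note: luminescence from a luciferase reporter switched on by cAMP; 0% is about no effect; higher luminescence signal means agonism.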 The conditions noted are these: GLP-1R agonist cell assay; at 46.1 µM (top of the series). Summed up:
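Agonism scored as increased luciferase luminescence driven by cAMP in HEK293 clones carrying GLP-1R. Cells settled 12 hours, received compound for 4-6 hr at 37 deg C, 5% CO2, and were read after 12 min detection reagent at RT.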

The nature of experiment [7]: qHTS of Nrf2 Activators: LOPAC Validation (AID 624149). Note: 0% is about no effect. The conditions noted are these: Nrf2/ARE reporter cell assay; at 46.1 µM (top of the series). Summed up:
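AREc32_Fluc cells, 1000/well in OPTI-MEM with 5% FBS, grown overnight, then exposed to compounds for 24 hr at 37 deg C, 5% CO2. ARE-driven firefly luciferase read by Steady-Glo luminescence after 30 min at RT.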

Experiment [8] is described as follows: HTS Assay for Allosteric Antagonists of the Human D2 Dopamine Receptor: Hit Validation in HTRF (AID 624455).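 Note: stable D1 dopamine receptor cell line scored for blocking the D1 response; % is set by controls: 0 for no effect and ±100 for the full control effect.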 The conditions noted are these: D2 receptor cells, HTRF cAMP read-out, antagonist mode; at 46.1 µM (top of the series). Summed up: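 Hit validation in cells stably expressing the D1 dopamine receptor, run in HTRF format. Compounds were tested for their ability to inhibit the D1-mediated response.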
(In general: In TR-FRET formats the signal depends on donor and acceptor labels being close together.)

Experiment [9] deals with Arylsulfatase A (Homo sapiens) (UniProt P15289). Put plainly: qHTS screen for enhancers of Arylsulfatase A (ASA1): LOPAC Validation Assay (AID 720538). Note: 0% is about no effect. The conditions noted are these: ASA enzyme activity, LOPAC qHTS enhancer assay; activity change, positive = activation: at 57.5 µM (top of the series). Summed up:
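MLD patient fibroblasts (SV40, ASA-I179S), 1536-well; adhere 6 hrs; cpd 48h, 37 degree C, 5% CO2; pNCS 0.5mM final in lysis buffer, 14h RT; stop 1N NaOH final; fluor. Ex525/Em598.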

The nature of experiment [10]: qHTS for compounds that reverse cellular toxicity of Amyloid beta (A-beta) peptide in yeast: LOPAC Validation Assay (AID 720559).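 Note: plate controls were DMSO for no effect and equimolar ferric chloride plus clioquinol rescue for full effect.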 The conditions noted are these: yeast expressing A-beta; at 46.1 µM (top of the series). The method in brief: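 Medium dispensed, compounds pinned, A-beta yeast suspension added; plates held at 30 C for 48 hr; absorbance measured at 600 nm to gauge growth; values scaled between DMSO and FeCl3/clioquinol (equimolar) controls.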

Experiment [11] can be described thus: qHTS for Activators of Parkin Expression: LOPAC Validation Assay (NLuc Reporter) (AID 720572). The conditions noted are these: Parkin promoter NanoLuc reporter cells, luminescence, percent of positive control, DMSO as zero; at 46.1 µM (top of the series). The method in brief:
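Parkin promoter-driven FLuc/NLuc neuronal reporter cells; 24 h plating, 7-pt dose response, 24 h at 37 C/5% CO2; FLuc then NanoLuc reagent, 10 min each, luminescence; DMSO/positive control normalized.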

Experiment [12] can be described thus: qHTS for Activators of Parkin Expression: LOPAC Validation Assay (FLuc Reporter) (AID 720573). The conditions noted are these: Cell line, PRKN promoter firefly luciferase reporter, vehicle wells = 0, positive control = 100%; at 46.1 µM (top of the series). The method in brief:
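Cells seeded, 24 h; compounds pinned, 7-pt dose response; 24 h at 37 C/5% CO2; volume reduced; FLuc reagent 10 min RT; luminescence read. Normalization: DMSO = 0, positive control = 100%.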

Experiment [13] deals with T1, Hexokinase-4 (Homo sapiens) + Glucokinase regulatory protein (Homo sapiens) (UniProt P35557+Q14397). Put plainly: qHTS assay for inhibitors of recombinant human GCK-GKRP interaction: Diaphorase-coupled assay (AID 743205). The conditions noted are these: G6PDH/diaphorase resorufin fluorescence; at 57.5 µM (top of the series). Summed up: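 25 mM Hepes pH 7.6, 5 mM glucose, 0.4 mM ATP, 4 U/ml G6PDH; 10 nM each GST-GCK/FLAG-GKRP. Kinetic fluorescence read, 1/min × 30 min. Normalized: DMSO ± enzyme = max/min.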

Experiment [14] addresses T1, Hexokinase-4 (Homo sapiens) + Glucokinase regulatory protein (Homo sapiens). Put plainly: qHTS assay for inhibitors of recombinant human GCK-GKRP interaction: ADP-Glo assay (AID 743206).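 Note: plate controls were DMSO plus enzyme for no effect and no enzyme for full effect.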 The conditions noted are these: ADP-Glo luminescence, 60 min, 0% = vehicle-only wells with enzyme present; at 76.9 µM (top of the series). The method in brief:
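GST-GCK and FLAG-GKRP (15 nM each in the dispensed mix, with 2 uM S6P) react with 0.4 mM ATP and 5 mM glucose (final) in Hepes pH 7.6 for 60 min at room temperature. ADP is measured by ADP-Glo luminescence.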

For experiment [15] the target is unchanged. Put plainly: qHTS assay for inhibitors of recombinant human GCK-GKRP interaction: HTRF assay (AID 743207).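 Note: 0% = DMSO with GCK present and -100% = DMSO wells lacking GCK.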 The conditions noted are these: recombinant GCK-GKRP HTRF binding, 60 min, with sorbitol-6-phosphate; at 57.5 µM (top of the series). The method in brief: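 5 nM GST-GCK + 5 nM FLAG-GKRP + 2 uM S6P, pH 7.1 buffer (25 mM Hepes, 2 mM MgCl2, 25 mM KCl, 1 mM DTT, Tween/BSA); pin-transferred cpd; anti-FLAG XL665/anti-GST K; 60 min RT; HTRF.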

The entries are a selection whose mix differs from that of the whole data set. Records with an inconclusive call do not appear. For part of these data: Results with a measured potency or affinity are listed apart. Activity calls are given as the source filed them. Calls come from the whole dose curve; as a rule, active = well fitted curve in the direction sought with a large enough effect; inconclusive = small, poorly fitted or top-dose-only effect, or another doubt; inactive = no such curve, though single readings can be large; an effect the other way counts as inactive or inconclusive.

For `CN(C(=O)Cc1ccccc1)[C@@H]1CC[C@]2(CCCO2)C[C@H]1N1CCCC1`, the activation is inactive: 2.68% in experiment [1]; inactive: -1.17% in experiment [6]; inactive: -1.45% in experiment [7]; inactive: 8.44% in [11]; inactive: 0.743% in [12]. Besides, the activity change, negative = inhibition is inactive: 2.29% in experiment [2], inactive: 2.07% in experiment [3], inactive: 28.2% in [4] and inactive: 5.98% in experiment [15]. The Potency in experiment [5] is active: 20 µM. Also, the activity, negative = inhibition in [8] was inactive: -0.743%. The activity change, positive = activation in [9] was inactive: -10.8%; in [13] it was inactive: -1.14%. Besides, in experiment [10], the growth rescue, positive = activation is inactive: -11%. In experiment [14], the activity, positive = activation is inactive: 1.5%.

The record behind these values is PubChem BioAssay (NCATS).
